Laboratory results taken from patent US20140093525A1, “COMPOSITIONS AND METHODS OF TREATING OPIOID ADDICTION” (Minneapolis Medical Research Foundation, priority 2012, published 2014).

System: serum antibodies elicited by OXY-KLH
Experiment: Competition ELISA of serum from rats vaccinated with OXY-KLH

**Q.** How did the “relative affinity of antiserum / cross-reactivity (in words)” value turn out when [Leu5]-enkephalin [Leu-enkephalin] was run?
**A.** Its value is “negligible cross-reactivity”.
